Test results reported in patent publication US9676780B2, “Piperazine-substituted [1,2,4]triazolo[1,5-C]quinazolin-5-amine compounds with A2A antagonist properties” (MERCK SHARP & DOHME CORP., priority 2012, dated 2017).
pEC50: −log10 of the molar value.

Target: human A2a receptor (Homo sapiens, UniProt P29274)
Assay: A2a receptor competition binding assay (Scintillation Proximity, tritiated radioligand)
Conditions: read-out: A2a EC50; membranes from HEK293 cells expressing the human A2a receptor; 0.5 nM tritiated ligand; SPA beads; one hour at room temperature

Row | SMILES | pEC50
1 | COc1cccc2c1nc(N)n1nc(CN3C[C@@H](C)N(c4ccc(F)cc4)[C@@H](C)C3)nc21 | 7.49
2 | COc1cccc2c1nc(N)n1nc(CN3CCN(c4ccc(F)cc4)[C@H](C)C3)nc21 | 8.08
3 | COc1cccc2c1nc(N)n1nc(CN3CCN(c4cncc(F)c4)C[C@H]3C)nc21 | 7.74
4 | COc1cccc2c1nc(N)n1nc(CCCN3CCN(c4ccc(F)cc4)C[C@H]3C)nc21 | 7.61
